# From PubChem BioAssay AID2805 (Sanford-Burnham Center for Chemical Genomics, 2010)
# This is a selection; strong and weak results do not stand in their true shares. Some salts or complexes appear as unconnected parts, following the source record. Activity calls are given as the source filed them.
# System: intestinal alkaline phosphatase [Mus musculus]
# Test: mouse intestinal phosphatase enzyme activation – biochemical, luminescence, uHTS, primary screen (AID 2805)
# Settings: muIAP, CDP-Star luminescence, 30 min; at 10 µM; hits give high values; 1 = vehicle-only enzyme signal, 0 = enzyme-free wells
# Summary of the method: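 Assay system: mouse IAP enzyme; Reagent: CDP-Star chemiluminescent phosphatase substrate; Compound: DMSO-dissolved test compounds; Incubation: 30 min, room temperature; Technique: luminescence from enzymatic CDP-Star hydrolysis; Controls: DMSO-only wells and no-enzyme negative control.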
row,Compound,activation factor
1,CCOC(=O)c1ccc(NP(C)(=O)Oc2ccccc2)cc1 (stereo unspecified),inactive: 0.971
2,Cc1ccc(NP(C)(=O)Oc2ccccc2)c(C)c1 (stereo unspecified),inactive: 1.04
3,COc1ccccc1OP(C)(=O)Nc1ccc(C)cc1 (stereo unspecified),inactive: 0.946
4,COc1ccc(OP(C)(=O)Nc2cccc(F)c2)cc1 (stereo unspecified),inactive: 0.965
5,COc1ccccc1OP(C)(=O)Nc1cc(Cl)ccc1C (stereo unspecified),inactive: 0.913
6,Cc1cc(C)cc(OP(C)(N)=O)c1 (stereo unspecified),inactive: 1.14
7,O=[N+]([O-])c1cc([N+](=O)[O-])c(Nc2cccnc2)c([N+](=O)[O-])c1,inactive: 0.68
8,Cc1cccc(C)c1OP(C)(N)=O (stereo unspecified),inactive: 0.969
9,CC(C)(C)c1ccc(OP(C)(=O)Nc2ccc(SC(F)(F)F)cc2)cc1 (stereo unspecified),inactive: 1.05
10,CCN(CC)CCCOC(=O)C(O)(c1ccccc1)c1ccccc1,inactive: 0.96
11,CCOP(C)(=S)SCC(=O)NC(C)C(=O)O (stereo unspecified),inactive: 0.974
12,O=[N+]([O-])c1cc([N+](=O)[O-])c(O)c([N+](=O)[O-])c1.c1ccc(Oc2ccncc2)cc1,inactive: 1.15
13,CCOC(=O)c1ccc(NP(C)(=O)Oc2ccc(OC)cc2)cc1 (stereo unspecified),inactive: 0.947
14,CP(=O)(Nc1ccccn1)Oc1ccc(Cl)cc1 (stereo unspecified),inactive: 1.02
15,CP(=O)(Oc1ccccc1)OC(c1ccccc1)C(F)(F)F (stereo unspecified),inactive: 0.94
16,CP(=O)(Nc1ccc(SC(F)(F)F)cc1)Oc1ccc(Cl)cc1 (stereo unspecified),inactive: 0.992
17,Cc1cccc(C)c1OP(C)(=O)Nc1ccc(SC(F)(F)F)cc1 (stereo unspecified),inactive: 1.16
18,Cc1cc(C)cc(OP(C)(=O)Nc2ccc(SC(F)(F)F)cc2)c1 (stereo unspecified),inactive: 0.955
19,CP(=O)(NC(=O)Nc1ccccc1)Oc1ccccc1 (stereo unspecified),inactive: 1.08

row,Compound,activation factor
1,CCc1ccc(OP(C)(=O)N2CCN(c3ccc([N+](=O)[O-])cc3)CC2)cc1 (stereo unspecified),inactive: 0.954
2,CP(=S)(Nn1cnnc1)Oc1ccccc1 (stereo unspecified),inactive: 1.05
3,COc1ccccc1OP(C)(=O)Nc1ccccc1 (stereo unspecified),inactive: 1.11
4,CP(=O)(Nc1ccccc1Br)Oc1ccccc1 (stereo unspecified),inactive: 1.02
5,CN1CCCCC1COC(=O)C1(O)c2ccccc2CCc2ccccc21 (stereo unspecified),inactive: 1.03
6,COc1ccccc1OP(C)(=O)Nc1c(C)cccc1C (stereo unspecified),inactive: 0.962
7,CCCOc1ccc(NP(C)(=O)Oc2ccc(Cl)cc2)cc1 (stereo unspecified),inactive: 1.03
8,CP(=O)(Nc1ccc(SC(F)(F)F)cc1)Oc1ccccc1 (stereo unspecified),inactive: 1.03
9,CCOC(=O)C(CC)C1=NC(C)(C)Cc2ccccc21.O=[N+]([O-])c1cc([N+](=O)[O-])c(O)c([N+](=O)[O-])c1 (stereo unspecified),inactive: 0.949
10,CC1=C2N=C(C=C3N=C(C(C)=C4[N-][C@@](C)([C@@H]5N=C1[C@](C)(CCC(=O)NC[C@@H](C)OP(=O)([O-])O[C@H]1[C@@H](O)[C@@H](n6cnc7cc(C)c(C)cc76)O[C@@H]1CO)[C@H]5CC(N)=O)[C@@](C)(CC(N)=O)[C@@H]4CCC(N)=O)[C@@](C)(CC(N)=O)[C@@H]3CCC(N)=O)C(C)(C)[C@@H]2CCC(N)=O.[C-]#N.[Co+3],inactive: 0.819
11,O=[N+]([O-])c1cc([N+](=O)[O-])c(Nc2nnnn2CCO)c([N+](=O)[O-])c1,inactive: 0.814
12,O=[N+]([O-])c1cc([N+](=O)[O-])c(-c2cnn(-c3ccccc3)c2)c([N+](=O)[O-])c1,inactive: 0.98
13,Cc1nc2ccc3ccccc3c2s1.O=[N+]([O-])c1cc([N+](=O)[O-])c(O)c([N+](=O)[O-])c1,inactive: 1.09
14,O=[N+]([O-])c1cc([N+](=O)[O-])c(-n2nnc3ccccc32)c([N+](=O)[O-])c1,inactive: 1.01
15,Cc1cc(C)cc(OP(C)(=O)Nc2ccccn2)c1 (stereo unspecified),inactive: 0.913
16,CP(=O)(Nc1cccc(Br)c1)Oc1ccccc1 (stereo unspecified),inactive: 1.2
17,Cc1ccc(C)c(NP(C)(=O)Oc2ccccc2)c1 (stereo unspecified),inactive: 0.965
18,COc1ccccc1OP(C)(=O)Nc1cccc(Br)c1 (stereo unspecified),inactive: 0.952
19,Cc1cc(C)cc(OP(C)(=O)Nc2ccc(C)cc2C)c1 (stereo unspecified),inactive: 1.07

row,Compound,activation factor
1,CCOC(=O)c1ccc(NP(C)(=O)Oc2cc(C)cc(C)c2)cc1 (stereo unspecified),inactive: 0.815
2,CC1=NCCc2c1[nH]c1ccccc21.O=[N+]([O-])c1cc([N+](=O)[O-])c(O)c([N+](=O)[O-])c1,inactive: 0.851
3,O=C(O)c1cccc(Nc2c([N+](=O)[O-])cc([N+](=O)[O-])cc2[N+](=O)[O-])c1,inactive: 0.989
4,CCN(CC)CCCOC(=O)C(O)(c1ccccc1)C1CCCCC1 (stereo unspecified),inactive: 0.955
5,O=[N+]([O-])c1cc([N+](=O)[O-])c(OC2CCCCC2O)c([N+](=O)[O-])c1 (stereo unspecified),inactive: 0.955
6,CCCCCOc1ccc(NP(C)(=O)Oc2ccc(Cl)cc2Cl)cc1 (stereo unspecified),inactive: 0.961
7,CP(=O)(Nc1ccccc1)Oc1ccc(F)cc1 (stereo unspecified),inactive: 0.965
8,COc1ccc(OP(C)(=O)Nc2ccc(SC(F)(F)F)cc2)cc1 (stereo unspecified),inactive: 0.937
9,CCOC(=O)c1ccc(NP(C)(=O)Oc2ccc(F)cc2)cc1 (stereo unspecified),inactive: 0.971
10,O=C(OCCN1CCN(CCOCc2ccccc2)CC1)C(O)(c1ccccc1)c1ccccc1,inactive: 0.922
11,O=C(OC1CN2CCC1CC2)c1ccc([N+](=O)[O-])cc1 (stereo unspecified),inactive: 1.11
12,COc1ccc2c(c1O)-c1c(O)c(OC)cc3c1[C@H](C2)[N+](C)(C)CC3.O=[N+]([O-])c1cc([N+](=O)[O-])c([O-])c([N+](=O)[O-])c1[O-],inactive: 0.935
13,CC(C)c1ccc(OP(C)(=O)Nc2ccc(SC(F)(F)F)cc2)cc1 (stereo unspecified),inactive: 1.06
14,CP(=O)(Nc1ccccc1F)Oc1ccccc1 (stereo unspecified),inactive: 1.04
15,CP(=O)(Nc1ccc2c(c1)OCCO2)Oc1ccccc1 (stereo unspecified),inactive: 0.958
16,Cc1ccccc1NP(C)(=O)Nc1ccccc1C,inactive: 1
17,CP(=O)(Nc1ccc(SC(F)(F)F)cc1)Oc1ccc(F)cc1 (stereo unspecified),inactive: 0.85
18,CCOP(C)(=S)SCC(=O)NC(C)(CC)C(=O)O (stereo unspecified),inactive: 0.972
